From ChEMBL document CHEMBL5725625, “Substituted 4-phenylpiperidines, their preparation and use” (2018)

Test: Scintillation Proximity RBP4 Binding Assay: Untagged human RBP4 purified from urine of tubular proteinuria patients was purchased from Fitzgerald Industries International. It was biotinylated using the EZ-Link Sulfo-NHS-LC-Biotinylation kit from Pierce following the manufacturer's recommendations. Binding experiments were performed in 96-well plates (OptiPlate, PerkinElmer) in a final assay volume of 100 μl per well in SPA buffer (1×PBS, pH 7.4, 1 mM EDTA, 0.1% BSA, 0.5% CHAPS). The reaction mix contained 10 nM 3H-Retinol (48.7 Ci/mmol; PerkinElmer), 0.3 mg/well Streptavidin-PVT beads, 50 nM biotinylated RBP4 and a test compound. Nonspecific binding was determined in the presence of 20 μM of unlabeled retinol. The reaction mix was assembled in the dark under dim red light. The plates were sealed with clear tape (TopSeal-A: 96-well microplate, PerkinElmer), wrapped in the aluminum foil, and allowed to equilibrate 6 hours at room temperature followed by overnight incubation at +4° C. Radiocounts were measured using a TopCount NXT counter (Packard Instrument Company).

| SMILES | IC50 |
| --- | --- |
| O=C(c1n[nH]c2c1CCN(C1COC1)C2)N1CCC(c2cc(F)cc(F)c2C(F)(F)F)CC1 | 21 nM |
| O=C(c1n[nH]c2c1CCN(CC(F)(F)F)C2)N1CCC(c2cc(F)cc(F)c2C(F)(F)F)CC1 | 24.2 nM |
